The experiment has as its target Recombinant human cathepsin S (CatS) (Homo sapiens, UniProt P25774). Put plainly: biochemical.

The chains behind the UniProt entries cited, without tags or fusion partners. Residues count along the entry.
UniProt P25774, 115-331: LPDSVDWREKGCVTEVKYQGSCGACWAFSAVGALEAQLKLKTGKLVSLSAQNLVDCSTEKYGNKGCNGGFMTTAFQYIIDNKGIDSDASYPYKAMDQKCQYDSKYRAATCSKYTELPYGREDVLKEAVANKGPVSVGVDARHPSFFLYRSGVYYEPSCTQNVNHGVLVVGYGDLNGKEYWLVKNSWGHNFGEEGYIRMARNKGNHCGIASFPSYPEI

One may read the IC50 as the concentration needed to halve the response being measured. Take `CS(=O)(=O)N1CCc2c(c(-c3ccc(C(F)(F)F)c(SCCN4CCOCC4)c3)nn2CC(O)CN2CCC(c3nnnn3Cc3ccccc3)CC2)C1` (stereo not shown) [Example 880, 1-[5-(Methylsulfonyl)-3-{3-[(2-morpholin-4-ylethyl)sulfanyl]-4-(trifluoromethyl)phenyl}-4,5,6,7-tetrahydro-1H-pyrazolo[4,3-c]pyridin-1-yl]-3-{4-[1-(phenylmethyl)-1H-tetrazol-5-yl]piperidin-1-yl}propan-2-ol]: the IC50 was 160 nM.

Consider `CC1(C)CCCN(CC(O)Cn2nc(-c3ccc(C(F)(F)F)c(SCCN4CCOCC4)c3)c3c2CCN(S(C)(=O)=O)C3)C1` (stereo not shown) [Example 458, 1-(3,3-Dimethylpiperidin-1-yl)-3-[5-(methylsulfonyl)-3-{3-[(2-morpholin-4-ylethyl)sulfanyl]-4-(trifluoromethyl)phenyl}-4,5,6,7-tetrahydro-1H-pyrazolo[4,3-c]pyridin-1-yl]propan-2-ol], for which the half-maximal inhibitory concentration (IC50) was 540 nM.

Regarding `COc1cccc(N2CCN(CC(O)Cn3nc(-c4ccc(C(F)(F)F)c(SCCN5CCC(F)(F)C5)c4)c4c3CCNC4)CC2)c1` (stereo not shown) [Example 581, 1-{3-[3-{[2-(3,3-Difluoropyrrolidin-1-yl)ethyl]sulfanyl}-4-(trifluoromethyl)phenyl]-4,5,6,7-tetrahydro-1H-pyrazolo[4,3-c]pyridin-1-yl}-3-{4-[3-(methyloxy)phenyl]piperazin-1-yl}propan-2-ol], the half-inhibitory concentration (IC50) came out at 550 nM.

As for `CS(=O)(=O)N1CCc2c(c(-c3ccc(C(F)(F)F)c(SCCN4CC[C@H](F)C4)c3)nn2C[C@@H](O)CN2CCCCC2)C1` [Example 354, (2S)-1-{3-[3-({2-[(3S)-3-Fluoropyrrolidin-1-yl]ethyl}sulfanyl)-4-(trifluoromethyl)phenyl]-5-(methylsulfonyl)-4,5,6,7-tetrahydro-1H-pyrazolo[4,3-c]pyridin-1-yl}-3-piperidin-1-ylpropan-2-ol], the IC50 is 1270 nM.

For the molecule `CC(=O)NC1CCN(C[C@H](O)Cn2nc(-c3ccc(C(F)(F)F)c(SCCN4CCCC4)c3)c3c2CCN(C(=O)C(N)=O)C3)CC1` [Example 249, 2-(1-{(2S)-3-[4-(Acetylamino)piperidin-1-yl]-2-hydroxypropyl}-3-{3-[(2-pyrrolidin-1-ylethyl)sulfanyl]-4-(trifluoromethyl)phenyl}-1,4,6,7-tetrahydro-5H-pyrazolo[4,3-c]pyridin-5-yl)-2-oxoacetamide], the concentration for half-maximal inhibition (IC50) came to 50 nM.

Consider `O=C(CSc1cc(-c2nn(CC(O)CN3CCCCC3)c3c2CNCC3)ccc1C(F)(F)F)N1CCOCC1` (stereo not shown) [Example 265, 1-(3-{3-[(2-Morpholin-4-yl-2-oxoethyl)sulfanyl]-4-(trifluoromethyl)phenyl}-4,5,6,7-tetrahydro-1H-pyrazolo[4,3-c]pyridin-1-yl)-3-piperidin-1-ylpropan-2-ol], for which the IC50 turned out to be 4400 nM.

As to `CC(C)(C)NC(=O)N1CCc2c(c(-c3ccc(C(F)(F)F)c(SCCN4CCC(F)CC4)c3)nn2C[C@@H](O)CN2CCCCC2)C1` [Example 522, N-(1,1-Dimethylethyl)-3-[3-{[2-(4-fluoropiperidin-1-yl)ethyl]sulfanyl}-4-(trifluoromethyl)phenyl]-1-[(2S)-2-hydroxy-3-piperidin-1-ylpropyl]-1,4,6,7-tetrahydro-5H-pyrazolo[4,3-c]pyridine-5-carboxamide], the concentration for half-maximal inhibition (IC50) amounted to 980 nM.

For the molecule `CS(=O)(=O)N1CCc2c(c(-c3ccc(C(F)(F)F)c(SCC(=O)NC4Cc5ccccc5C4)c3)nn2CC(O)CN2CCC(N3CCCC3=O)CC2)C1` (stereo not shown) [Example 69, 2-[5-(1-{2-Hydroxy-3-[4-(2-oxo-pyrrolidin-1-yl)-piperidin-1-yl]-propyl}-5-methanesulfonyl-4,5,6,7-tetrahydro-1H-pyrazolo[4,3-c]pyridin-3-yl)-2-trifluoromethyl-phenylsulfanyl]-N-indan-2-yl-acetamide], the 50% inhibitory concentration (IC50) was 2900 nM.

Take `CN(C)C1CCN(CC(O)Cn2nc(-c3ccc(C(F)(F)F)c(SCCN4CCOCC4)c3)c3c2CCN(S(C)(=O)=O)C3)CC1` (stereo not shown) [Example 553, 1-[4-(Dimethylamino)piperidin-1-yl]-3-[5-(methylsulfonyl)-3-{3-[(2-morpholin-4-ylethyl)sulfanyl]-4-(trifluoromethyl)phenyl}-4,5,6,7-tetrahydro-1H-pyrazolo[4,3-c]pyridin-1-yl]propan-2-ol]: the 50% inhibitory concentration (IC50) was 1920 nM.

In the case of `CS(=O)(=O)N1CCc2c(c(-c3ccc(C(F)(F)F)c(SCCN4CC5CCCC5C4)c3)nn2C[C@@H](O)CN2CCCCC2)C1` (stereo partly drawn) [Example 216, (2S)-1-{3-[3-{[2-(Hexahydrocyclopenta[c]pyrrol-2(1H)-yl)ethyl]sulfanyl}-4-(trifluoromethyl)phenyl]-5-(methylsulfonyl)-4,5,6,7-tetrahydro-1H-pyrazolo[4,3-c]pyridin-1-yl}-3-piperidin-1-ylpropan-2-ol], the IC50 is 170 nM.

Take `CNC(=O)CSc1cc(-c2nn(CCCN3CCC(N4CCCC4=O)CC3)c3c2CN(S(C)(=O)=O)CC3)ccc1C(F)(F)F` [Example 86, 2-[5-(5-Methanesulfonyl-1-{3-[4-(2-oxo-pyrrolidin-1-yl)-piperidin-1-yl]-propyl}-4,5,6,7-tetrahydro-1H-pyrazolo[4,3-c]pyridin-3-yl)-2-trifluoromethyl-phenylsulfanyl]-N-methyl-acetamide]: the 50% inhibitory concentration (IC50) was 1150 nM.

For `OC(CN1CCOCC1)Cn1nc(-c2ccc(C(F)(F)F)c(SCCN3CCC(F)(F)C3)c2)c2c1CCNC2` (stereo not shown) [Example 298, 1-{3-[3-{[2-(3,3-Difluoropyrrolidin-1-yl)ethyl]sulfanyl}-4-(trifluoromethyl)phenyl]-4,5,6,7-tetrahydro-1H-pyrazolo[4,3-c]pyridin-1-yl}-3-morpholin-4-ylpropan-2-ol], the IC50 was 6020 nM.

`CS(=O)(=O)N1CCc2c(c(-c3ccc(C(F)(F)F)c(SCCN4CCCC4)c3)nn2CC(O)CN2CC[C@H](CO)C2)C1` (stereo partly drawn) [Example 350, 1-[(3S)-3-(Hydroxymethyl)pyrrolidin-1-yl]-3-[5-(methylsulfonyl)-3-{3-[(2-pyrrolidin-1-ylethyl)sulfanyl]-4-(trifluoromethyl)phenyl}-4,5,6,7-tetrahydro-1H-pyrazolo[4,3-c]pyridin-1-yl]propan-2-ol]: the IC50 was determined as 2320 nM.

For `CC1CCN(C[C@H](O)Cn2nc(-c3ccc(C(F)(F)F)c(SCCN4CC[C@H](F)C4)c3)c3c2CCN(S(C)(=O)=O)C3)CC1` [Example 409, (2S)-1-{3-[3-({2-[(3S)-3-Fluoropyrrolidin-1-yl]ethyl}sulfanyl)-4-(trifluoromethyl)phenyl]-5-(methylsulfonyl)-4,5,6,7-tetrahydro-1H-pyrazolo[4,3-c]pyridin-1-yl}-3-(4-methylpiperidin-1-yl)propan-2-ol], the half-inhibitory concentration (IC50) is 590 nM.

`CC1(C)CCN(C[C@H](O)Cn2nc(-c3ccc(C(F)(F)F)c(SCCN4CCC(F)CC4)c3)c3c2CCN(S(C)(=O)=O)C3)CC1` [Example 140, (2S)-1-(4,4-Dimethyl-piperidin-1-yl)-3-(3-{3-[2-(4-fluoro-piperidin-1-yl)-ethylsulfanyl]-4-trifluoromethyl-phenyl}-5-methanesulfonyl-4,5,6,7-tetrahydro-pyrazolo[4,3-c]pyridin-1-yl)-propan-2-ol]: the IC50 was 80 nM.

As to `CS(=O)(=O)N1CCc2c(c(-c3ccc(C(F)(F)F)c(SCCN4CCC(F)CC4)c3)nn2C[C@@H](O)CN2CCCCC2CCO)C1` (stereo partly drawn) [Example 620, (2S)-1-{3-[3-{[2-(4-Fluoropiperidin-1-yl)ethyl]sulfanyl}-4-(trifluoromethyl)phenyl]-5-(methylsulfonyl)-4,5,6,7-tetrahydro-1H-pyrazolo[4,3-c]pyridin-1-yl}-3-[2-(2-hydroxyethyl)piperidin-1-yl]propan-2-ol], the IC50 stood at 850 nM.

For the molecule `CS(=O)(=O)N1CCc2c(c(-c3ccc(C(F)(F)F)c(SCCNC4CCCC4)c3)nn2CC(O)CN2CCCCC2)C1` (stereo not shown) [Example 346, 1-{3-[3-{[2-(Cyclopentylamino)ethyl]sulfanyl}-4-(trifluoromethyl)phenyl]-5-(methylsulfonyl)-4,5,6,7-tetrahydro-1H-pyrazolo[4,3-c]pyridin-1-yl}-3-piperidin-1-ylpropan-2-ol], the half-maximal inhibitory concentration (IC50) amounted to 370 nM.

As for `CS(=O)(=O)N1CCc2c(c(-c3ccc(Cl)c(SCCCCl)c3)nn2CCCN2CCOCC2)C1` [Example 139, 3-[4-Chloro-3-(3-chloro-propylsulfanyl)-phenyl]-5-methanesulfonyl-1-(3-morpholin-4-yl-propyl)-4,5,6,7-tetrahydro-1H-pyrazolo[4,3-c]pyridine], the IC50 was 630 nM.

As to `CS(=O)(=O)N1CCc2c(c(-c3ccc(C(F)(F)F)c(SCCN4CCOCC4)c3)nn2CC(O)CN2CCC(OCC(=O)N3CCCC3)CC2)C1` (stereo not shown) [Example 851, 1-[5-(Methylsulfonyl)-3-{3-[(2-morpholin-4-ylethyl)sulfanyl]-4-(trifluoromethyl)phenyl}-4,5,6,7-tetrahydro-1H-pyrazolo[4,3-c]pyridin-1-yl]-3-{4-[(2-oxo-2-pyrrolidin-1-ylethyl)oxy]piperidin-1-yl}propan-2-ol], the half-inhibitory concentration (IC50) was found to be 810 nM.

`CCS(=O)(=O)N1CCc2c(c(-c3ccc(C(F)(F)F)c(SCCN4CCCCC4)c3)nn2CC(O)CN2CCCCC2)C1` (stereo not shown) [Example 236, 1-[5-(Ethylsulfonyl)-3-{3-[(2-piperidin-1-ylethyl)sulfanyl]-4-(trifluoromethyl)phenyl}-4,5,6,7-tetrahydro-1H-pyrazolo[4,3-c]pyridin-1-yl]-3-piperidin-1-ylpropan-2-ol]: the IC50 came out at 330 nM.

With `CC(=O)N1CCc2c(c(-c3ccc(C(F)(F)F)c(SCC(=O)N4CCCC4)c3)nn2CC(O)CN2CCC(C)CC2)C1` (stereo not shown) [Example 280, 1-(5-Acetyl-3-{3-[(2-oxo-2-pyrrolidin-1-ylethyl)sulfanyl]-4-(trifluoromethyl)phenyl}-4,5,6,7-tetrahydro-1H-pyrazolo[4,3-c]pyridin-1-yl)-3-(4-methylpiperidin-1-yl)propan-2-ol], the IC50 came out at 190 nM.

With `CS(=O)(=O)N1CCc2c(c(-c3ccc(C(F)(F)F)c(SCC(=O)NCc4ccccc4)c3)nn2CC(O)CN2CCC(N3CCCC3=O)CC2)C1` (stereo not shown) [Example 73, N-Benzyl-2-[5-(1-{2-hydroxy-3-[4-(2-oxo-pyrrolidin-1-yl)-piperidin-1-yl]-propyl}-5-methanesulfonyl-4,5,6,7-tetrahydro-1H-pyrazolo[4,3-c]pyridin-3-yl)-2-trifluoromethyl-phenylsulfanyl]-acetamide], the concentration for half-maximal inhibition (IC50) was 1030 nM.

The values are drawn from US20090099157A1, “TETRAHYDRO-PYRAZOLO-PYRIDINE THIOETHER MODULATORS OF CATHEPSIN S” (priority 2007, published 2009).
